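Values below derive from 48-hour exposures of cells grown in 96-well plates, with endpoints linearly interpolated between the two concentrations bracketing the appropriate inhibition level. The concentration for 50% growth inhibition is given as GI50. TGI is the concentration that stops growth completely.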
Experiments:
Test in all cases: growth of human tumour cells (NCI), 48 h; in the data active = GI50 below about 0.43 µM; inactive = the rest
NCI-H460 lung = test system: NCI-H460 lung
A498 renal = test system: A498 renal
SF-539 CNS = test system: SF-539 CNS
ACHN renal = test system: ACHN renal
HT29 colon = test system: HT29 colon
PC-3 prostate = test system: PC-3 prostate
SR leukemia = test system: SR leukemia
A549 NSCLC = test system: A549 NSCLC
UO-31 renal = test system: UO-31 renal
MCF7 breast = test system: MCF7 breast
LOX IMVI melanoma = test system: LOX IMVI melanoma
HCT-15 colon = test system: HCT-15 colon
CCRF-CEM leukemia = test system: CCRF-CEM leukemia
T-47D breast = test system: T-47D breast
UACC-257 melanoma = test system: UACC-257 melanoma
HL-60(TB) leukemia = test system: HL-60(TB) leukemia
OVCAR-4 ovarian = test system: OVCAR-4 ovarian
SNB-19 CNS = test system: SNB-19 CNS
HS 578T breast = test system: HS 578T breast
786-0 renal = test system: 786-0 renal
SNB-75 CNS = test system: SNB-75 CNS
SW-620 colon = test system: SW-620 colon
SK-MEL-5 melanoma = test system: SK-MEL-5 melanoma
K-562 leukemia = test system: K-562 leukemia
HCC-2998 colon = test system: HCC-2998 colon
RPMI-8226 leukemia = test system: RPMI-8226 leukemia
COLO 205 colon = test system: COLO 205 colon
SF-295 CNS = test system: SF-295 CNS
U251 CNS = test system: U251 CNS
BT-549 breast = test system: BT-549 breast
OVCAR-5 ovarian = test system: OVCAR-5 ovarian
MDA-MB-231 breast = test system: MDA-MB-231 breast
MOLT-4 leukemia = test system: MOLT-4 leukemia
SN12C renal = test system: SN12C renal
NCI-H522 lung = test system: NCI-H522 lung
SK-OV-3 ovarian = test system: SK-OV-3 ovarian
SF-268 CNS = test system: SF-268 CNS
SK-MEL-2 melanoma = test system: SK-MEL-2 melanoma
TK-10 renal = test system: TK-10 renal
NCI-H23 lung = test system: NCI-H23 lung
RXF 393 renal = test system: RXF 393 renal
KM12 colon = test system: KM12 colon
OVCAR-8 ovarian = test system: OVCAR-8 ovarian
CAKI-1 renal = test system: CAKI-1 renal
MALME-3M melanoma = test system: MALME-3M melanoma
M14 melanoma = test system: M14 melanoma
IGROV1 ovarian = test system: IGROV1 ovarian
NCI-H226 lung = test system: NCI-H226 lung
MDA-MB-435 = test system: MDA-MB-435
HCT-116 colon = test system: HCT-116 colon
UACC-62 melanoma = test system: UACC-62 melanoma
NCI/ADR-RES ovarian = test system: NCI/ADR-RES ovarian
HOP-92 NSCLC = test system: HOP-92 NSCLC
NCI-H322M lung = test system: NCI-H322M lung
OVCAR-3 ovarian = test system: OVCAR-3 ovarian
HOP-62 NSCLC = test system: HOP-62 NSCLC
DU-145 prostate = test system: DU-145 prostate
SK-MEL-28 melanoma = test system: SK-MEL-28 melanoma

CCN(CC)[P+](c1ccc(OC)cc1OC)(N(CC)CC)N(CC)CC
7.1 µM: TGI (UACC-257 melanoma)
18.6 µM: TGI (KM12 colon)
23.9 µM: TGI (OVCAR-8 ovarian)
inactive: GI50 (NCI-H460 lung) 1760 nM | GI50 (A498 renal) 1630 nM | GI50 (SF-539 CNS) 5.67 µM | GI50 (ACHN renal) 20.7 µM | GI50 (HT29 colon) 2650 nM | GI50 (PC-3 prostate) 855 nM | GI50 (SR leukemia) 4.25 µM | GI50 (A549 NSCLC) 4.34 µM | GI50 (UO-31 renal) 19.1 µM | GI50 (MCF7 breast) 861 nM | GI50 (LOX IMVI melanoma) 2200 nM | GI50 (HCT-15 colon) 37.9 µM | GI50 (CCRF-CEM leukemia) 5.41 µM | GI50 (T-47D breast) 1010 nM | GI50 (UACC-257 melanoma) 744 nM | GI50 (HL-60(TB) leukemia) 833 nM | GI50 (OVCAR-4 ovarian) 2960 nM | GI50 (SNB-19 CNS) 2940 nM | GI50 (HS 578T breast) 3.6 µM | GI50 (786-0 renal) 13.5 µM | GI50 (SNB-75 CNS) 1840 nM | GI50 (SW-620 colon) 3.11 µM | GI50 (SK-MEL-5 melanoma) 927 nM | GI50 (K-562 leukemia) 1910 nM | GI50 (HCC-2998 colon) 3.35 µM | GI50 (RPMI-8226 leukemia) 946 nM | GI50 (COLO 205 colon) 1150 nM | GI50 (SF-295 CNS) 3.27 µM | GI50 (U251 CNS) 1950 nM | GI50 (BT-549 breast) 4.44 µM | GI50 (OVCAR-5 ovarian) 10.9 µM | GI50 (MDA-MB-231 breast) 4.28 µM | GI50 (MOLT-4 leukemia) 7.43 µM | GI50 (SN12C renal) 2870 nM | GI50 (NCI-H522 lung) 2230 nM | GI50 (SK-OV-3 ovarian) 5.79 µM | GI50 (SF-268 CNS) 4.19 µM | GI50 (SK-MEL-2 melanoma) 2620 nM | GI50 (TK-10 renal) 3.89 µM | GI50 (NCI-H23 lung) 3.52 µM | GI50 (RXF 393 renal) 10.4 µM | GI50 (KM12 colon) 1430 nM | GI50 (OVCAR-8 ovarian) 2000 nM | GI50 (CAKI-1 renal) 26.4 µM | GI50 (MALME-3M melanoma) 3.13 µM | GI50 (M14 melanoma) 4.15 µM | GI50 (IGROV1 ovarian) 2790 nM | GI50 (NCI-H226 lung) 5.99 µM | GI50 (MDA-MB-435) 1530 nM | GI50 (HCT-116 colon) 2400 nM | GI50 (UACC-62 melanoma) 1700 nM | GI50 (NCI/ADR-RES ovarian) > 100 µM | GI50 (HOP-92 NSCLC) 1050 nM | GI50 (NCI-H322M lung) 6.87 µM | GI50 (OVCAR-3 ovarian) 1460 nM | GI50 (HOP-62 NSCLC) 4.75 µM | GI50 (DU-145 prostate) 4.08 µM | GI50 (SK-MEL-28 melanoma) 6.5 µM
12.4 µM: TGI (NCI-H522 lung)
83.9 µM: TGI (UO-31 renal)
6.47 µM: TGI (SK-MEL-5 melanoma)
16.4 µM: TGI (HT29 colon)
27.7 µM: TGI (NCI-H460 lung)
45.7 µM: TGI (OVCAR-3 ovarian)
88 µM: TGI (SK-OV-3 ovarian)
33.6 µM: TGI (IGROV1 ovarian)
6.13 µM: TGI (HL-60(TB) leukemia)
2740 nM: TGI (COLO 205 colon)
8.28 µM: TGI (A498 renal)
28.3 µM: TGI (SF-295 CNS)
6.81 µM: TGI (HOP-92 NSCLC)
6.05 µM: TGI (LOX IMVI melanoma)
16.3 µM: TGI (PC-3 prostate)
19.1 µM: TGI (MDA-MB-435)
21.3 µM: TGI (UACC-62 melanoma)
8.24 µM: TGI (SK-MEL-2 melanoma)
> 100 µM: TGI (SF-539 CNS) | TGI (ACHN renal) | TGI (SR leukemia) | TGI (A549 NSCLC) | TGI (MCF7 breast) | TGI (HCT-15 colon) | TGI (CCRF-CEM leukemia) | TGI (T-47D breast) | TGI (OVCAR-4 ovarian) | TGI (SNB-19 CNS) | TGI (786-0 renal) | TGI (SW-620 colon) | TGI (K-562 leukemia) | TGI (HCC-2998 colon) | TGI (RPMI-8226 leukemia) | TGI (U251 CNS) | TGI (BT-549 breast) | TGI (OVCAR-5 ovarian) | TGI (MDA-MB-231 breast) | TGI (MOLT-4 leukemia) | TGI (SN12C renal) | TGI (SF-268 CNS) | TGI (TK-10 renal) | TGI (NCI-H23 lung) | TGI (RXF 393 renal) | TGI (CAKI-1 renal) | TGI (M14 melanoma) | TGI (NCI-H226 lung) | TGI (HCT-116 colon) | TGI (NCI/ADR-RES ovarian) | TGI (HOP-62 NSCLC) | TGI (DU-145 prostate) | TGI (SK-MEL-28 melanoma)
70.6 µM: TGI (MALME-3M melanoma)
9.94 µM: TGI (SNB-75 CNS)
73.4 µM: TGI (HS 578T breast)
89 µM: TGI (NCI-H322M lung)

Reference: PubChem BioAssay (NCI)
